One molecule from PMC3521580 (Journal of medicinal chemistry, 2011) can be followed below.

By UniProt entry, the sequences of proteins in these tests, tags left out.
UniProt P32245, whole entry: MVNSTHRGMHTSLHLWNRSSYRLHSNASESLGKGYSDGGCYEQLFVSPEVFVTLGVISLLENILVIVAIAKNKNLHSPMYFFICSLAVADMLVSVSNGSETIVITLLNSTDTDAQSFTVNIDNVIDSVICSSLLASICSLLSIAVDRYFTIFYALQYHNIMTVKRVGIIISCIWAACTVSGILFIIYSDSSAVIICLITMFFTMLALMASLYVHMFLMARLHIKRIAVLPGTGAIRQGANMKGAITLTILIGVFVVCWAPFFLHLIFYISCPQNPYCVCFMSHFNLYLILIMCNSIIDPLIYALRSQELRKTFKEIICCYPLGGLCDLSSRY

The experiment deals with human MC4R (Homo sapiens, UniProt P32245). Description: cAMP biological response chemiluminescent immunoassay in Hek293/hMC4R cells. The experiment is classed as cell-based. The following applies: hMC4R cells, result in words.

Regarding `CC(=O)N[C@@H](Cc1c[nH]cn1)C(=O)N[C@H](Cc1ccccc1)C(=O)N[C@@H](CCCNC(=N)N)C(=O)N[C@@H](Cc1c[nH]c2ccccc12)C(N)=O` [Ac-MSH(4), reference compound], the “cAMP production, agonist activity at MC4R” value is given as “weak agonist”.
